# Earlier results in patent US20230285259A1, “METHOD FOR DYEING KERATINOUS MATERIAL, COMPRISING THE USE OF AN ORGANOSILICON COMPOUND, A DERIVATIVE OF ALKYLATED SILANOL, A COLORING COMPOUND AND A POST-TREATMENT AGENT” (Henkel AG & Co. KGaA, priority 2020, published 2023).
# Settings: 25° C.
substance,measurement,value
"3,4,5,6-tetrachloro-2-(1,4,5,8-tetrabromo-6-hydroxy-3-oxoxanthen-9-yl)benzoic acid [Acid Red 92]",solubility in water,greater than 10 g/L
